# Experimental data as given in PubChem BioAssay AID485273 (Sanford-Burnham Center for Chemical Genomics, 2010).
# Protein sequences, listed by entry. Tags and fused reporters are not part of them.
# UniProt P61088, whole entry, looked up: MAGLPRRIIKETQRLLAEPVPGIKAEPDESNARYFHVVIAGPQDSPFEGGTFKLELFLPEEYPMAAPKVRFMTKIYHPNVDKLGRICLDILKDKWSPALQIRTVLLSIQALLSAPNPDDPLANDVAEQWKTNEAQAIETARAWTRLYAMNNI
# The list shows a part of the results, in another mix than the full data. Some of these compounds have results that are not shown, active ones among them. Activity calls are given as the source filed them. No stated cut-off is given here; in the data, active means inhibition above about 45% (passing the limit was not always enough); inconclusive means no clear call, values can overlap the other calls.
# Molecular target: Ubiquitin-conjugating enzyme E2 N (Homo sapiens) (UniProt P61088)
# Test: blockers of UBC13 ubiquitin chain synthesis – biochemical, TR-FRET, uHTS, primary screen (AID 485273)
# Conditions: UBC13 polyubiquitin chain formation, at 20 µM, active compounds read high
row,SMILES,inhibition
1,O=C(OC1CN2CCC1CC2)C(CO)(c1ccccc1)c1ccccc1 (centres undefined),inactive: 11.3%
2,COc1ccc(Br)c(C(=O)NCC2(N3CCCCC3)CCCCC2)c1,inactive: 1.1%
3,CN(C)c1cccc(C(=O)NCC2(N(C)C)CCCCC2)c1,inactive: 5.1%
4,CC(C)Oc1ccc(C(=O)NCC2(N(C)C)CCCCC2)cc1,inactive: -1.2%
5,CN(C)C1(CNC(=O)c2ccc(Br)cc2)CCCCC1,inactive: 0.9%
6,COc1cc(C(=O)NCC2(N(C)C)CCCCC2)c([N+](=O)[O-])cc1OC,inactive: -7.3%
7,COc1cccc(C(=O)NCC2(N3CCCCC3)CCCCC2)c1,inactive: 1.4%
8,COc1ccc(Cl)cc1C(=O)NCC1(N(C)C)CCCCC1,inactive: 0.6%
9,O=C(NCC1(N2CCCCC2)CCCCC1)c1cccc(Cl)c1,inactive: 2.5%
10,Cc1ccccc1C(=O)NCC1(N2CCCCC2)CCCCC1,inactive: -2.6%
11,CN(C)C1CCCC1OC(=O)C(O)(c1ccccc1)c1ccccc1 (centres undefined),inactive: 12.4%
12,CN(C)c1ccc(C(=O)NCC2(N(C)C)CCCCC2)cc1,inactive: -10.4%
13,C=CCN1CCN(CCOC(=O)C(O)(c2ccccc2)c2ccccc2)CC1,inactive: -5.6%
14,O=C(NCC1(N2CCCCC2)CCCCC1)c1cc(F)c(F)cc1Cl,inactive: 5.7%
15,Cc1cc(C(=O)NCC2(N3CCCCC3)CCCCC2)ccc1[N+](=O)[O-],inactive: 5.4%
16,CCN1CCCC(OC(=O)C2(O)c3ccccc3C=Cc3ccccc32)C1 (centres undefined),inactive: 5.3%
17,O=C(NCC1(N2CCCCC2)CCCCC1)c1cccc(Br)c1,inactive: -8.4%
18,COc1ccc(C(=O)NCC2(N(C)C)CCCCC2)cc1,inactive: -4%
19,O=C(NCC1(N2CCCCC2)CCCCC1)c1cc([N+](=O)[O-])ccc1Cl,inactive: 3.4%
20,CN1[C@@H]2CC[C@H]1CC(OC(=O)C(O)(c1ccccc1)c1ccccc1)C2 (some centres undefined),inactive: 3.2%
21,CC(C)N1C(=O)CC2(CCN(CCOC(=O)C(O)(c3ccccc3)c3ccccc3)CC2)C1=O,inactive: 3.5%
22,CCN(CC)CC(C)C(C)OC(=O)C(O)(c1ccccc1)c1ccccc1 (centres undefined),inactive: 0.2%
23,COc1cc(SC)ccc1C(=O)NCC1(N(C)C)CCCCC1,inactive: -0.8%
24,Cc1ccc(C(=O)NCC2(N3CCCCC3)CCCCC2)cc1,inactive: 2.1%
